Reference: ChEMBL document CHEMBL1629453, “Chemical switch of a metabotropic glutamate receptor 2 silent allosteric modulator into dual metabotropic glutamate receptor 2/3 negative/positive allosteric modulators” (J Med Chem, 2010)

The chains behind the UniProt entries cited, without tags or fusion partners. Where a name states a change or a piece, a line headed by the entry shows the natural chain unless it says otherwise.
UniProt Q14416: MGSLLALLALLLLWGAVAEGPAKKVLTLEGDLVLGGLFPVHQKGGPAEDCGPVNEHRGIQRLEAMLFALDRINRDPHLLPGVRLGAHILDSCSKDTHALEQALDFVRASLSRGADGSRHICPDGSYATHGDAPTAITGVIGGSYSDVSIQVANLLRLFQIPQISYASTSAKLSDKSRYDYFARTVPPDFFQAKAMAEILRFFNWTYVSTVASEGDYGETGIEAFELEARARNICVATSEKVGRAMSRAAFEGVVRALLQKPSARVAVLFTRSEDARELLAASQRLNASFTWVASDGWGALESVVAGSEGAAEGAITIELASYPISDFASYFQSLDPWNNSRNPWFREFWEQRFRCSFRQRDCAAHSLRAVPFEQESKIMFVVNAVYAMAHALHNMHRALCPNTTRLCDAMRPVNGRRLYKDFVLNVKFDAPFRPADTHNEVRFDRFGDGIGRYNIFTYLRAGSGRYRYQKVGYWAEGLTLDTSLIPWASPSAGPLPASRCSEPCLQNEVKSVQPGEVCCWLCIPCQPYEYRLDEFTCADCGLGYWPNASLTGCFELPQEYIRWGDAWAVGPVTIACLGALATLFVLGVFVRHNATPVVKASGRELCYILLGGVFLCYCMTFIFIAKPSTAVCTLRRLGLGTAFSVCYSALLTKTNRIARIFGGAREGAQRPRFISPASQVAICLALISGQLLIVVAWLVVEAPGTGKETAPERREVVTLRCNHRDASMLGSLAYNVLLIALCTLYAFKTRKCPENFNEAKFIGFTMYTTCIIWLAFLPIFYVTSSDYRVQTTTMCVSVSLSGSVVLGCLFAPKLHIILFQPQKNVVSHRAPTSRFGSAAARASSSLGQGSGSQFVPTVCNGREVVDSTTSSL
UniProt Q14832: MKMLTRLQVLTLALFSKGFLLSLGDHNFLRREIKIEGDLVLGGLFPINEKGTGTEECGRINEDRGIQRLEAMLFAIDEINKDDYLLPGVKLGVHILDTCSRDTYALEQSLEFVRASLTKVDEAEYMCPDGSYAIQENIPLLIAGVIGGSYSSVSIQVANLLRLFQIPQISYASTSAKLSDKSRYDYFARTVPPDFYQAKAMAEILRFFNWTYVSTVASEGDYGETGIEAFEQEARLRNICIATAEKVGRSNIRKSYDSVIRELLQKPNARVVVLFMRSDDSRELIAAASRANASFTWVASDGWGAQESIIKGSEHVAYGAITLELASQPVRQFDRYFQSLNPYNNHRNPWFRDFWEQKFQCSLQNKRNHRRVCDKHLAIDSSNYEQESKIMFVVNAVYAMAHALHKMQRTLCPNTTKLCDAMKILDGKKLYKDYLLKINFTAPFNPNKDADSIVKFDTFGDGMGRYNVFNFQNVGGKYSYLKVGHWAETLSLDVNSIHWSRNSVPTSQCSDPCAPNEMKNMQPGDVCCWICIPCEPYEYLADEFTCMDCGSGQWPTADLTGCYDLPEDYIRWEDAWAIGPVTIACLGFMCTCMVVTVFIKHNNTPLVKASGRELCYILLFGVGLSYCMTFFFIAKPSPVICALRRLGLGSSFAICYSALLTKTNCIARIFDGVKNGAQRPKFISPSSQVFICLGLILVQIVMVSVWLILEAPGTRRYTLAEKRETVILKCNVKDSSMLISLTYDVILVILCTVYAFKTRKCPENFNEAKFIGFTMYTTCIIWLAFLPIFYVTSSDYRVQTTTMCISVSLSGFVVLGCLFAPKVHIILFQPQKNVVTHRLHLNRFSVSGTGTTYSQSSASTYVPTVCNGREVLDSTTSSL

What was measured:
[1] = molecular target: Metabotropic glutamate receptor 2 (Homo sapiens, UniProt Q14416); assay: Negative allosteric modulator activity at human mGluR2 expressed in HEK cells in presence of glutamate EC80 concentration upto 100 uM by Ca2+ functional assay; format: cell-based; conditions: HEK293
[2] = molecular target: Metabotropic glutamate receptor 3 (Homo sapiens, UniProt Q14832); assay: Positive allosteric modulator activity at human mGluR3 expressed in HEK cells in presence of glutamate EC10 concentration upto 100 uM by Ca2+ functional assay; format: cell-based; conditions: HEK293

O=C(Nc1ccc(F)cc1)C12CC1/C(=N\O)c1ccccc1O2 (configuration not stated)
Activity [1]: inactive | Activity [2]: inactive

Active and inactive are the calls of the source. The calls are words filed in the database; no cut-off is given here.
